The values that follow come from PubChem BioAssay AID1205 (EPA DSSTox, 2008).

Calls of active or inactive are those of the source.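 Rule for the calls: active = tumour findings in long-term animal cancer tests in more than one sex, species or organ; inactive = no tumour finding and more than one negative test.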

A short description of this data set: DSSTox (CPDBAS) Carcinogenic Potency Database Summary MultiCellCall Results. The note with it: animal carcinogenicity bioassays, multi-cell call summary.

Consider `NC(=O)Nc1ccc([As](=O)(O)O)cc1`, for which the outcome is “inactive; multisex inactive”.

Regarding `CCN(N=O)C(=N)N[N+](=O)[O-]`, the outcome was “active; multisite active”.

Consider `CN(N=O)C(=N)N[N+](=O)[O-]`, for which the outcome was “active; multisite active; multisex active; multispecies active”.

Take `COP(=O)(OC)N1CCOCC1`: the outcome is “active; multisex active”.

`C1CN1`: the outcome was “active; multisite active; multisex active”.

As to `COP(=S)(OC)SCCNC(C)=O`, the outcome was “inactive; multisex inactive”.

In the case of `C[As](=O)(O)O`, the outcome is “inactive; multisex inactive; multispecies inactive”.

As for `O=C1C2CC=CCC2C(=O)N1SC(Cl)(Cl)C(Cl)Cl` (stereo not drawn), the outcome is “active; multisite active; multisex active; multispecies active”.
